# Source: BindingDB's records for 29870665
# Amino acid sequences for entries named in this document (tags omitted). Residues count along the entry.
# UniProt O42275, 24-633 limits assumed: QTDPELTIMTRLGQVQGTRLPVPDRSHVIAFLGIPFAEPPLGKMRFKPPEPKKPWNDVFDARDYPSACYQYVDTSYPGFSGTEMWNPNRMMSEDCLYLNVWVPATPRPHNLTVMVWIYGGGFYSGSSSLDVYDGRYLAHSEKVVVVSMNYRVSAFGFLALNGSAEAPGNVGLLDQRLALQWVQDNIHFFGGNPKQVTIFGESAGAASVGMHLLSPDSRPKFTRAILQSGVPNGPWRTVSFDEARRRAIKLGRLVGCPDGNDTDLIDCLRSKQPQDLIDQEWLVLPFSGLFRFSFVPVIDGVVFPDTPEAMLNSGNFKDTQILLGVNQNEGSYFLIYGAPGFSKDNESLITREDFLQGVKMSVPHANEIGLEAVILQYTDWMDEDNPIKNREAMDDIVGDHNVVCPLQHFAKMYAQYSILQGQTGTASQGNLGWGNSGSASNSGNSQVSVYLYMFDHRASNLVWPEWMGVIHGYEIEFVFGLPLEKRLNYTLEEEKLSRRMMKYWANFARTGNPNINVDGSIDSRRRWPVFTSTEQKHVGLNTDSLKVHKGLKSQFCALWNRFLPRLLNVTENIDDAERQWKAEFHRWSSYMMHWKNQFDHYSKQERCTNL
# Legend:
# Acetylcholinesterase [1] = biological target: T1, Acetylcholinesterase (Electrophorus electricus, UniProt O42275); assay: Resurrection of methylphosphonate-aged electric eel AChE assessed as enzyme reactivation using acetylthiocholine as substrate at pH 9 after 1 day by Ellman's assay relative to control
# Acetylcholinesterase [2] = biological target: T1, Acetylcholinesterase; assay: Resurrection of isopropyl phosphate-aged electric eel AChE assessed as enzyme reactivation using acetylthiocholine as substrate at pH 9 after 1 day by Ellman's assay relative to control
smiles,measurement,setting,value
Oc1cccnc1CN1CCCC1,EC50,Acetylcholinesterase [1],1210 µM
same,EC50,Acetylcholinesterase [2],1020 µM
